Laboratory results: US20230406919A1 (Johns Hopkins, published 2023)

B1: Nb17 (VHH)
VHH: QVQLQESGGGLVQPGGSLRLSCRASGFTFANYDLAWTRQVPGKEREFVASIGVARGRTRTPATFYSASAKGRFTVSRDDARNTVYLQMNSLKPEDSAVYYCAAKDVEVSVATVEDYPYWGRGTQVTVSS
notes: Llama VHH expressed from pHEN4 (PelB leader, C-terminal HA tag) in E. coli TG1 periplasm; Used in the clone ELISA and the periplasmic-extract ELISA; also called Nb17 clone
B2: Nb30 (VHH)
VHH: QVQLQESGGGLVQAGTSLVLSCAISGHTFSITGTAWFRQAPGKEREFVAGLTSSGDITHYASSVKGRFTISSDIAKNTVYLQMNNLKPEDTAVYYCTSVIRGRAGYDTWGQGTQVTVSS
notes: pHEN4 clone, HA-tagged, periplasmic extract; also called family 3
B3: Nb82 (VHH)
VHH: QVQLQESGGGLVQTGGSLRLSCKASGRAFARYDLAWSRQAPGKQREFVASIGVTRNPPYYSGSVKGRFTVSRDNAKETVYLQMNDLKPEDSAVYYCAAKDASVTVATIEDYPYWGRGTQVTVSS
notes: Llama VHH expressed from pHEN4 (C-terminal HA tag) in E. coli TG1 periplasm; also called Nb82 clone
B4: Nb17 fused to Cerulean (VHH)
VHH: B1 VHH
notes: Expressed in HEK293 cells for the flow-cytometric FRET 2-hybrid assay; also called Nb17-cerulean (FRET donor); not shown: cerulean fluorescent protein attached to the carboxy-terminus
B5: Nb17-His (VHH)
VHH: B1 VHH
notes: Coding region re-amplified with primers A6E/p38 and cloned PstI/BstEII into pHEN6-TEV-His; also called purified Nb17; not shown: TEV site and 6x-His tag of the pHEN6-TEV-His vector
B6: Nb82-His (VHH)
VHH: B3 VHH
notes: Subcloned into pHEN6-TEV-His; the HA-tag tail is probably replaced by TEV-His; also called purified Nb82; not shown: TEV site and 6x-His tag of the pHEN6-TEV-His vector

Tests used:
Calmodulin (CaM) = target: T1, Calmodulin (CaM) (mammalian); assay: periplasmic-extract ELISA on 0.1 ug coated Ca2+CaM or apoCaM, anti-HA detection
T1 construct: also called free CaM; CaM alone

Nav1.8 CTD = target: T2, Nav1.8 CTD (UniProt Q9Y5Y9, in part); assay: flow-cytometric FRET 2-hybrid in live cells, Nb17 with the Nav1.8 CTD
T2 construct: domain: CTD; construct not described; also called C terminal of Nav1.8

GST = GST (UniProt P08515 = GST); assay: ELISA, purified Nb-His on coated protein
CTNav1.4T-CaM [1] = target: T3, CTNav1.4T-CaM (mammalian); assay: differential scanning fluorimetry (SYPRO Orange) of the CTNav-CaM+Nb complex
T3 construct: also called truncated C-terminal region of Nav1.4 in complex with calmodulin; CTNav1.4-CaM

CTNav1.4FL-CaM = target: T4, CTNav1.4FL-CaM (mammalian); assay: as above
T4 construct: also called full length C-terminal region of Nav1.4 in complex with calmodulin

CTNav1.4T-CaM [2] = target: T3, CTNav1.4T-CaM; assay: BLI (Octet RED96), Nb-His on Ni-NTA biosensor, CTNav-CaM as analyte, 25 C
CTNav1.5T-CaM = target: T5, CTNav1.5T-CaM (mammalian); assay: as above
T5 construct: also called CTNav1.5-CaM

Row | Binder | binding result (Calmodulin (CaM)) | binding result (GST) | Kd (CTNav1.4T-CaM [2]) [nM] | koff (CTNav1.4T-CaM [2]) [s⁻¹] | Kd (CTNav1.5T-CaM) [nM] | koff (CTNav1.5T-CaM) [s⁻¹] | further results
1 | B1 | no binding (tested: 1:100 dilution of periplasmic extract) |  |  |  |  |  | 
2 | B2 | no binding (tested: 1:100 dilution of periplasmic extract) |  |  |  |  |  | 
3 | B3 | no binding (tested: 1:100 dilution of periplasmic extract) |  |  |  |  |  | 
4 | B4 |  |  |  |  |  |  | binding result (Nav1.8 CTD): no binding (tested: 1E+5 a.u. (Dfree))
5 | B5 |  | no binding | 41.1 | 0.000739 | 60.5 | 0.00107 | shift in melting temperature (ΔTM) (CTNav1.4T-CaM [1]): 17 ° C.; shift in melting temperature (ΔTM) (CTNav1.4FL-CaM): 17 ° C.
6 | B6 |  | no binding | 50.2 | 0.000451 | 63.2 | 0.00113 | shift in melting temperature (thermal shift) (CTNav1.4T-CaM [1]): 13 ° C.; shift in melting temperature (thermal shift) (CTNav1.4FL-CaM): 12 ° C.
